{
  "source": "the supplement of paper PMC9135407",
  "note": "Counter-ions that a name gives are not always drawn. What follows is the remainder of the data, with few or none of the hits.",
  "data": [
    {"tested_on": "primary human hepatic stellate cells (donor 1)", "test": "COL1A1 mRNA fold change vs DMSO (normalised to PSMB2); higher = more COL1A1 expression, active = hit call of the paper", "conditions": "33.3333 µM; 48 h", "method": "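Secondary qRT-PCR screen in primary human HSCs (donor 1), 384-well plates, with compounds dispensed in quadruplicate and incubated for 48 h. Cells-to-CT lysates were used for multiplexed TaqMan qPCR of ACTA2 or COL1A1 with PSMB2 as reference. Fold changes versus DMSO come from a linear model (Ct_gene ~ Ct_PSMB2 + plate + chemical). A hit is defined as COL1A1 and ACTA2 FC <0.5 (FDR <0.05) with PSMB2 between 0.2 and 2.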", "values": [
      {"smiles": "N/C(=N/CCc1ccc(I)cc1)SCCCc1cnc[nH]1", "note": "[Iodophenpropit dihydrobromide]", "COL1A1 mRNA fold change": "inactive: 0.0932"}
    ]}
  ]
}
